Results on one compound are retold here after publication PMC2955234 (Investigational New Drugs, 2009).

This data set in a line: Pharmacokinetics of sorafenib in plasma. In kind it is in vivo. The settings on record: human, oral, 400 mg, C max, Cohort 1, cycle 1, day 2, 400 mg sd (n = 6), geometric mean (% CV).

On to `CNC(=O)c1cc(Oc2ccc(NC(=O)Nc3ccc(Cl)c(C(F)(F)F)c3)cc2)ccn1` [Sorafenib], for which the Cmax came out at 2500 ng/mL.
